Ab-95 light chain CDR variants: yeast mating affinities

Antigen: PDVDLGDISGINAS, a 14-residue peptide of the SARS-CoV-2 spike HR2 region.

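AAYL52 was designed without a model: most single CDR substitutions and a random sample of double and triple ones. The scFvs were displayed on barcoded MATa yeast, the peptide on MATalpha yeast. After mating in shaken culture at 30 °C for 16 h, diploids were selected and their barcode pairs sequenced. Read counts were normalised to the haploid input and turned into Kd by a linear fit to BCL2-family pairs of known affinity, for each replicate. The assay was run in three technical replicates.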

Parent: Ab-95, a human scFv built as VH, a 15-residue (Gly4Ser)3 linker, VL. Only the CDRs of the light chain vary.
VH: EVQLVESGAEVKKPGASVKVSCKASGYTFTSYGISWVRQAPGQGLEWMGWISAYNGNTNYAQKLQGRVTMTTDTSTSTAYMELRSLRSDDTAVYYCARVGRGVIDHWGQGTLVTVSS
VL: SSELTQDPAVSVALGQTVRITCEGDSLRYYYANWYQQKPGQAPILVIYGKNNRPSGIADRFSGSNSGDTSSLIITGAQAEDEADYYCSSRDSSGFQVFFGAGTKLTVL

Changes read parent residue, position, new residue, counted from the first residue of the VL shown. Scale: log10 of Kd in nM, estimated from mating counts; low values are strong binders. Replicates are averaged; those with no signal do not enter the mean. An entry "nd" has no value in the source: the pair was not observed among the diploids in any replicate. This suggests poor binding but is not conclusive. For reference, the parent read 2.31 as the reference entry and 2.25 as a member of this library. As a blank, each scFv also met three strains without target: over library AAYL52, 28% of these pairings were detected, typically at 3.91 and seldom below 2.90.

With E23L R90W D91I the result was 3.10 (2 of 3 replicates).
With D25L S88N G94M the result was 2.94 (3 of 3 replicates).
With N52W F95V V97R the result was 3.81 (1 of 3 replicates).
With L27A R53V S93V the result was nd (0 of 3 replicates).
With G24W Y31Q G49C the result was 4.22 (3 of 3 replicates).
With S26Q Y31I F98V the result was nd (0 of 3 replicates).
With L27E Y29C Q96S the result was 3.01 (1 of 3 replicates).
With L27C Y30W S88V the result was 4.44 (1 of 3 replicates).
With S89K R90W S92L the result was 2.25 (3 of 3 replicates).
With E23K Y29L R53C the result was 3.67 (2 of 3 replicates).
With Y30I D91G V97E the result was nd (0 of 3 replicates).
With N33Y G49T N51F the result was 4.67 (1 of 3 replicates).
With E23F P54F D91G the result was 4.46 (1 of 3 replicates).
With D25T R28E A32R the result was 4.51 (2 of 3 replicates).
With Y30N A32N S89L the result was 1.95 (3 of 3 replicates).
With Y29V G49N S92L the result was 5.44 (1 of 3 replicates).
With G49W S92I the result was 4.31 (2 of 3 replicates).
With Y31Q R53Y G94S the result was nd (0 of 3 replicates).
With E23P G24I S89D the result was 4.40 (1 of 3 replicates).
With L27F N33W S88K the result was 4.17 (3 of 3 replicates).
With D25R N33Q S89Q the result was nd (0 of 3 replicates).
With G24W R28Q R90N the result was nd (0 of 3 replicates).
With D25W S26I F98M the result was 3.50 (2 of 3 replicates).
With A32Y K50T the result was 2.77 (3 of 3 replicates).
With P54F S92F F98E the result was 3.06 (2 of 3 replicates).
With Y29C N33M F95Q the result was 3.68 (2 of 3 replicates).
With S55H S88T S89C the result was 3.87 (3 of 3 replicates).
With S92K F98M the result was 2.00 (3 of 3 replicates).
With Y31Q S55L F98Q the result was 1.45 (3 of 3 replicates).
With K50M R53V D91Q the result was 4.38 (1 of 3 replicates).
With D25T Y31C F95Q the result was 2.65 (3 of 3 replicates).
With Y29C S89P Q96M the result was 3.21 (1 of 3 replicates).
With P54M S93R V97W the result was 2.92 (3 of 3 replicates).
With L27K S88F Q96S the result was nd (0 of 3 replicates).
With D25Y N52D R53A the result was 4.70 (2 of 3 replicates).
With D25R N33T P54M the result was 4.38 (3 of 3 replicates).
With G24V D91V the result was 4.53 (1 of 3 replicates).
With Y29E A32E R90Q the result was 3.46 (1 of 3 replicates).
With Y31W N33M G94K the result was 2.52 (3 of 3 replicates).
With D25Y Y30L N52Q the result was 1.76 (3 of 3 replicates).
With S88I D91Q S93L the result was 2.83 (2 of 3 replicates).
With G24K R53G F95H the result was nd (0 of 3 replicates).
With G49I P54Q R90Y the result was nd (0 of 3 replicates).
With S26F N33Q S88W the result was 4.32 (2 of 3 replicates).
With L27E G49T R90F the result was nd (0 of 3 replicates).
With E23T L27G N52E the result was 3.42 (3 of 3 replicates).

The closing 5 entries, repeated:

changes,"log10 Kd (nM), mean",seen in
G24K R53G F95H,nd,0 of 3
G49I P54Q R90Y,nd,0 of 3
S26F N33Q S88W,4.32,2 of 3
L27E G49T R90F,nd,0 of 3
E23T L27G N52E,3.42,3 of 3

The measurements come from Engelhart et al. 2022 (doi:10.1038/s41597-022-01779-4) through the FLAb antibody collection.